Test results from PubChem BioAssay AID2094 (Broad Institute, 2009).
The list shows a part of the results, in another mix than the full data. Active and inactive are the calls of the source. Rule as the data show it: active = activity change below about -75% (passing the limit was not always enough); inconclusive = no clear call, values can overlap the other calls.

Assay: Vibrio harveyi AI-2 quorum sensing modulators, primary screen, JMH597 strain, luminescence/OD600 ratio (AID 2094);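 also: luminescence divided by OD600 gain over 9 h not by final OD600 alone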
Details: Vibrio harveyi JMH597 AI-2 luminescence/OD600 ratio, 9 h; at 7.5 µM; stronger effect = lower value; 0 = neutral-control median; strain lacks LuxN and CqsS sensors

SMILES | activity change
Cc1ccc(C(=O)OC2CN3CCC2CC3)cc1 (stereo not drawn) | inactive: 1.44%
O=C(/C=C/c1ccccc1)OC1CN2CCC1CC2 (stereo not drawn) | inactive: 5.93%
CN(C)C1(CNC(=O)c2ccc(S(C)(=O)=O)cc2)CCCCC1 | inactive: 32.7%
COc1ccccc1CNC(=O)COC(=O)C(O)(c1ccccc1)c1ccccc1 | inactive: 21.2%
O=[As](O)(c1ccccc1Br)c1ccccc1Br | inactive: 23.8%
CC1(CBr)Cn2c(nc3ccccc3c2=O)S1 (stereo not drawn) | inactive: 10.7%
CC(C)/C=N\N=C(\N)N[N+](=O)[O-] | inactive: 35.2%
CN(C(=O)Cc1ccc(Cl)c(Cl)c1)[C@@H]1CCCC[C@H]1N1CCCC1 | inactive: 7.31%
CCOP(=O)(Nc1ccc(C)cn1)OCC | inactive: -7.11%
CN(CCCl)Cc1cc(Cl)c(NC2=NCCN2)c(Cl)c1 | inactive: 20%
O=P1(Nc2ccccn2)COc2ccccc2OC1 | inactive: 25.9%
CCC1=CC2Cc3nc4ccc(Cl)cc4c(N)c3C(C1)C2 (stereo not drawn) | inactive: 6.22%
CCOP(=O)(NC(=NC(C)c1ccccc1)NC(C)c1ccccc1)OCC (stereo not drawn) | inactive: -4.67%
Clc1n[nH]nc1-c1nn[nH][15n]1 | inactive: 12.4%
CC(C)(C)C(=O)NC(Sc1ncccn1)C(Cl)(Cl)Cl (stereo not drawn) | inactive: 10.6%
CCOC(=O)c1ccc(NC(=O)C(C)(CCl)SC)cc1 (stereo not drawn) | inactive: 9.74%
O=C(OC1CN2CCC1CC2)c1cccc([N+](=O)[O-])c1 (stereo not drawn) | inactive: 31%
CCC(C)N(CC(C)C)C(=S)SC(NC(C)=O)C(Cl)(Cl)Cl (stereo not drawn) | inactive: 14.9%
COP1(=S)c2c(C)nn(CCC#N)c2N=C(c2ccc(F)cc2)N1C (stereo not drawn) | inactive: -1.18%
O=C(COc1ccccc1)OC1CN2CCC1CC2 (stereo not drawn) | inactive: 12.3%
O=C(Nc1ccncc1[N+](=O)[O-])c1ccc([N+](=O)[O-])cc1[N+](=O)[O-] | inactive: 20.3%
CCOC(=O)Nc1cccc([As](=O)(O)O)c1 | inactive: 20.2%

SMILES | activity change
O=[N+]([O-])c1ccc(Nc2ccc(Oc3ccc([N+](=O)[O-])cc3[N+](=O)[O-])cc2)c([N+](=O)[O-])c1 | inactive: 21.8%
O=P(Nc1ccccn1)(c1cccc2ccccc12)c1cccc2ccccc12 | inactive: 12.2%
Cc1cc(SC(NC=O)C(Cl)(Cl)Cl)ncn1 (stereo not drawn) | inactive: 14.5%
CCOC(=O)Nc1ccc([As](=O)(O)O)c(O)c1 | inactive: 33.6%
CCCCOc1ccc(C(=O)NCC2(N3CCCCC3)CCCCC2)cc1OC | inactive: 2.84%
Cc1cc(SC(NC(=O)c2ccccc2)C(Cl)(Cl)Cl)nc(C(C)C)n1 (stereo not drawn) | inactive: 8.49%
CC(C)c1ccc(OP(=O)(Nc2ccccn2)Oc2ccccc2F)cc1 (stereo not drawn) | inactive: 0.0304%
ClCCSc1nnc(-c2cccnc2)o1 | inactive: 11.2%
CC(C)NC(=O)NP(=O)(Oc1ccccc1)Oc1ccccc1 | inactive: 8.64%
CCN(CC)C(=S)SC(NC=O)C(Cl)(Cl)Cl (stereo not drawn) | inactive: 6.26%
O=[N+]([O-])c1cc([N+](=O)[O-])c(-c2ccn[nH]2)s1 | active: -188%
O=[As](O)(c1ccc(O)cc1)c1ccccc1O | inactive: 18.4%
C[As](=O)(O)c1cccc(C(=O)O)c1 | inactive: -0.292%
Cc1ccc2nc3c(c(C)c2c1)CC(C(Cl)Cl)S3 (stereo not drawn) | inactive: 33.3%
Cc1ccc(OP(=O)(Nc2ccc([N+](=O)[O-])cn2)Oc2ccc(C)cc2)cc1 | inactive: 3.48%
COc1ccc(N/C(=N/P(=O)(N2CCOCC2)N2CCOCC2)N2CCOCC2)cc1 | inactive: 2.34%
O=C(OC1CN2CCC1CC2)C12CC3CC(CC(C3)C1)C2 (stereo not drawn) | inactive: -3.53%
Cc1cc(=O)[nH]c(N[N+](=O)[O-])n1 | inactive: 33.3%
Cc1c2c(nc3ccccc13)SC(C(Cl)Cl)C2 (stereo not drawn) | inactive: 3.78%
COc1ccc2nc(NP(=O)(c3ccccc3)c3ccccc3)sc2c1 | inactive: 11.4%
COc1cc(I)ccc1[As](=O)(O)O | inactive: 16.7%
